{
  "sequences": {"note": "By UniProt entry, the sequences of proteins in these tests, tags left out. Residues count along the entry.", "UniProt Q63380, 1-617": "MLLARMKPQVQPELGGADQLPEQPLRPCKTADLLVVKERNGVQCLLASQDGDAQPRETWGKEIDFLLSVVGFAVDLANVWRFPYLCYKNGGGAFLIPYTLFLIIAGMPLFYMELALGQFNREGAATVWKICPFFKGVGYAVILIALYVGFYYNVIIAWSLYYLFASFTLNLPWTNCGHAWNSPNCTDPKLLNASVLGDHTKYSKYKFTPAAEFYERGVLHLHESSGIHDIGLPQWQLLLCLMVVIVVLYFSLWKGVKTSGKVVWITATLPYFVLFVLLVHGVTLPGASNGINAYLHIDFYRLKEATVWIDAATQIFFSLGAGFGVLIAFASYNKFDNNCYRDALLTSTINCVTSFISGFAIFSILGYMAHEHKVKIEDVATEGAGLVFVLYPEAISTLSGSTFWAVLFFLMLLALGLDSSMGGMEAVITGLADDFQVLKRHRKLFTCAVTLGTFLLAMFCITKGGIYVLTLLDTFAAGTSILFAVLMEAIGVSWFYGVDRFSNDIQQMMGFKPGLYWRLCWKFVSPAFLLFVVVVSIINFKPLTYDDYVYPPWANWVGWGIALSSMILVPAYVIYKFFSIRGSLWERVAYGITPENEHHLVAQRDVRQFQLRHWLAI"},
  "source": "paper PMC2747657",
  "about": "(Bioorganic & medicinal chemistry, 2009)",
  "origin": "cited, not measured here",
  "biological_target": "NET (Rattus norvegicus, UniProt Q63380)",
  "settings": "read-out: NET, Ki [3H]nisoxetine; inhibition of [3H]nisoxetine binding; cited from earlier work",
  "data": [
    {"compound": "COC(=O)[C@H]1[C@@H](OC(=O)c2ccccc2)C[C@@H]2CC[C@H]1N2C", "note": "[Cocaine, cocaine]", "values": [
      {"measurement": "Ki", "result": 1990, "unit": "nM"}
    ]}
  ]
}
